{"source": "patent US20060211075", "key": {"[1]": {"tested_on": "peptide 25, Dab-modified pyrene analogue at Y-2"}, "[2]": {"tested_on": "T1, peptide 14, Ac-Glu-Glu-Glu-Ile-Tyr-Gly-Glu-Ile-Dab(dapoxyl)-Ala", "T1 sequence": "EEEIYGEIXA"}, "[3]": {"tested_on": "T2, peptide 13, Ac-Glu-Glu-Glu-Ile-Tyr-Dap(NBD)-Glu-Ile-Glu-Ala", "T2 sequence": "EEEIYXEIEA"}, "[4]": {"tested_on": "peptide 23, Dap-substituted pyrene derivative at Y+3"}}, "data": [{"substance": "Src kinase", "values": [{"measurement": "Km", "setting": "[1]", "result": 21, "unit": "µM"}, {"measurement": "Vmax", "setting": "[1]", "result": 2.4, "unit": "µmol/min/mg"}, {"measurement": "Km", "setting": "[2]", "result": "Km=4.8±0.8 µM"}, {"measurement": "Vmax", "setting": "[2]", "result": "Vmax=1.5±0.1 µmol/min·mg"}, {"measurement": "Km", "setting": "[3]", "result": "Km=32±0.5 µM"}, {"measurement": "Vmax", "setting": "[3]", "result": "Vmax=1.4±0.1 µmol/min·mg"}, {"measurement": "Km", "setting": "[4]", "result": 93, "unit": "µM"}, {"measurement": "Vmax", "setting": "[4]", "result": 5.2, "unit": "µmol/min/mg"}]}]}
